From patent US9150632B2 (Indiana University Research and Technology Corporation, priority 2009, dated 2015)
Like-named read-outs stand apart in the source and are kept apart here.

Amino acid sequences for entries named in this document (tags omitted). Residues count along the entry.
UniProt P43220, 24-463, species assumed: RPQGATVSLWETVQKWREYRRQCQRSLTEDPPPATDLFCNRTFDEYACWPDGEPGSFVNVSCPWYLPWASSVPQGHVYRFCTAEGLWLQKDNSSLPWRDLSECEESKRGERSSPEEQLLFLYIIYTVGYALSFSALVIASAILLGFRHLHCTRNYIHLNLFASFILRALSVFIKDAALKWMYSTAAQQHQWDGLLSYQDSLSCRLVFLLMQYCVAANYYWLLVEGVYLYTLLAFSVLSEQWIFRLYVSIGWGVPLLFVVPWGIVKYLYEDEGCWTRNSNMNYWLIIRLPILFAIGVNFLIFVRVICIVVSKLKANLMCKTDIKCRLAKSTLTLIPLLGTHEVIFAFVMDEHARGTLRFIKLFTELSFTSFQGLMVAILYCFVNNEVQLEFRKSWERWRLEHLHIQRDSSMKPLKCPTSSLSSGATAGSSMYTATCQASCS
UniProt P47871, 26-477: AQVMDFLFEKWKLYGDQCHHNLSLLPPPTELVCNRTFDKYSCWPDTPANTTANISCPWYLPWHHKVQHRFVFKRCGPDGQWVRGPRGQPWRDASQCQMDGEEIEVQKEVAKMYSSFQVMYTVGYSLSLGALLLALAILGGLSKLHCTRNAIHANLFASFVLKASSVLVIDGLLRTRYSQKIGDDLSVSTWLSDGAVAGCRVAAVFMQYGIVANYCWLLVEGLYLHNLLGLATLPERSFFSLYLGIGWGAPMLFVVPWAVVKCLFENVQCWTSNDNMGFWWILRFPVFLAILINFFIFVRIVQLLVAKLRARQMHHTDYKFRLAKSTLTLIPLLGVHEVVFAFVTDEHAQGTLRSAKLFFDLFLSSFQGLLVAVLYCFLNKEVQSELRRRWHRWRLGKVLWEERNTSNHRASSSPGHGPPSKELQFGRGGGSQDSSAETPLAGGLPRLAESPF

What was measured:
[1] = biological target: T1, GLP-1 receptor (Homo sapiens, UniProt P43220); settings: for % Activity of GLP-1: Table 21, relative to the native peptide; for GLP-1 Receptor % relative activity: activity relative to the native hormone at the indicated receptor
[2] = biological target: T2, glucagon receptor (Homo sapiens, UniProt P47871); test: Functional assay-cAMP synthesis, luciferase reporter in HEK293 cells, glucagon receptor; format: cell-based; settings: for % Activity of Glucagon: Table 21, relative to the native peptide; for Glucagon Receptor % relative activity: activity relative to the native hormone at the indicated receptor
T2 construct: expressed in transfected cells; host or cells: HEK293

[3] = biological target: T3, GIP receptor (Homo sapiens, UniProt P48546); test: Functional assay-cAMP synthesis, luciferase reporter in HEK293 cells, GIP receptor; format: cell-based; settings: for GIP Receptor % relative activity: activity relative to the native hormone at the indicated receptor; for agonist activity at the GIP receptor: text on Table 34
T3 construct: expressed in transfected cells; host or cells: HEK293
T3 sequence (P48546 22-466): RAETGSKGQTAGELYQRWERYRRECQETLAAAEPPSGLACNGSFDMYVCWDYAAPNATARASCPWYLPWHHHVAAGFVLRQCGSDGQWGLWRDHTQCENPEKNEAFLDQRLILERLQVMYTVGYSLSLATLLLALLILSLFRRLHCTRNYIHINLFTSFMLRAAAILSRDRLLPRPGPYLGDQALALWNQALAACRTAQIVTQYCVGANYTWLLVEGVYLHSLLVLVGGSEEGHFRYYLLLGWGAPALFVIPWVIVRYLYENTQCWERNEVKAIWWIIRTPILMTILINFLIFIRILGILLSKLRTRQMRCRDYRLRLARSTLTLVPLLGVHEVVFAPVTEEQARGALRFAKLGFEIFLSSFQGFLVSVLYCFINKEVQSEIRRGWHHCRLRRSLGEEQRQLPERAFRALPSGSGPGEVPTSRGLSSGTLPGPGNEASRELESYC

[4] = Body weight, body composition and food intake in diet-induced obesity (DIO) mice; format: in vivo
Description: […] 6 mice per group with initial average body weight of 44 g were tested. Body weight, body composition, food intake, and blood glucose levels were determined periodically.
Body weight was measured before injection and at 1, 3, 5, and 7 days post-injection.
(§1) Changes in body weight of and food intake by the mice were measured 0, 1, 3, 5, 7, 8, 10, 12, and 14 days after injection. Blood glucose levels of the mice were monitored throughout the 14 days. Glucose tolerance tests were performed by injecting a 25% glucose in saline solution 1 hour or 24 hours after administration of the acylated or pegylated peptide and measuring blood glucose levels at −60, 0, 15, 30, 60, or 120 min after the glucose injection.
The acylated glucagon analogs were as follows:
C57BI/6 mice were obtained from Jackson Laboratories and fed a diabetogenic diet from Research Diets, a high sucrose diet with 58% kcal from fat. Mice were single or group-housed on a 12:12-h light-dark cycle at 22° C. with free access to food and water. All studies were approved by and performed according to the guidelines of the Institutional Animal Care and Use Committee of the University of Cincinnati.
Whole body composition (fat and lean mass) was measured using NMR technology (EchoMRI, Houston, Tex.).
The peptides were administered daily for two weeks to 11 groups of 8 C57Bl/6 mice by subcutaneous injection at a dose of 10 or 30 nmol/kg. The initial average body weight of the mice was 51 g. The mice were 6 months old and had been on a diabetogenic diet for 4 months.
The peptides were then tested in vivo for their effects on body weight, food intake, blood glucose levels, and fat mass in eight-month old C57B1/6 mice that had been on a diabetogenic diet for 6 months. Eleven groups of eight mice were subcutaneously injected with 10 nmol/kg of peptide daily for one week.
Nine groups of 8 DIO mice (strain: C57B16 WT) were subcutaneously injected daily for 7 days with 10 nmol/kg of one of the peptides of Table 37. The average initial body weight of the mice was 57.6 g. The mice were approximately 10 months old and had been on a high fat diet for about 8 months.

[5] = Blood glucose and glucose tolerance test in DIO mice; format: in vivo; settings: C57Bl/6 mice on diabetogenic diet, s.c. daily
Description: A saline solution comprising 25% (v/v) glucose was injected at a dose of 1.5 g/kg of body weight at the 0 min time point. Blood glucose levels were measured at the −15, 0, 15, 30, 60, and 120 min time points.
A saline solution comprising 25% (v/v) glucose was injected at a dose of 1.5 g/kg of body weight at the 0 min time point. Blood glucose levels were measured at the 0, 15, 30, 60, and 120 min time points.
as §1
For the determination of glucose tolerance, mice were subjected to 6 h of fasting and injected intraperitoneally (i.p.) with 2 g glucose/kg body wt (50% D-glucose (Sigma) in 0.9% saline) for the glucose tolerance test (GTT). Tail blood glucose levels (mg/dl) were measured by using a hand-held glucometer (TheraSense Freestyle) before (0 min) and at 15, 30, 60, 90, and 120 min after injection.

[6] = biological target: T1, GLP-1 receptor; test: cell-based
[7] = Table 35, relative to the native hormone
[8] = Table 36, relative to the native hormone
[9] = C57Bl/6 mice on diabetogenic diet, s.c. 10 nmol/kg daily for one week

SMILES	% Activity of GLP-1 [1]	% Activity of Glucagon [2]	GLP-1 Receptor % relative activity [1]	GIP Receptor % relative activity [3]	agonist activity at the GIP receptor [3]	EC50 [2]	Glucagon Receptor % relative activity [2]	other results
CCCCCCCCCCCCCCCC(=O)NCCCC[C@H](NC(=O)[C@H](CC(=O)O)NC(=O)[C@H](CO)NC(=O)[C@@H](NC(=O)[C@H](Cc1ccccc1)NC(=O)[C@@H](NC(=O)CNC(=O)[C@H](CCC(N)=O)NC(=O)[C@H](CO)NC(=O)C(C)(C)c1c[nH]cn1)[C@@H](C)O)[C@@H](C)O)C(=O)N[C@@H](CO)C(=O)N[C@@H](CCCCN)C(=O)N[C@@H](Cc1ccc(O)cc1)C(=O)N[C@@H](CC(C)C)C(=O)N[C@@H](CC(=O)O)C(=O)N[C@H]1CCC(=O)NCCCC[C@@H](C(=O)N[C@@H](CC(=O)O)C(=O)N[C@@H](Cc2ccccc2)C(=O)N[C@H](C(=O)N[C@@H](CCC(N)=O)C(=O)N[C@@H](Cc2c[nH]c3ccccc23)C(=O)N[C@@H](CC(C)C)C(=O)N[C@@H](CCSC)C(=O)N[C@@H](CC(N)=O)C(=O)N[C@H](C(N)=O)[C@@H](C)O)C(C)C)NC(=O)[C@H](C)NC(=O)[C@H](CCCNC(=N)N)NC(=O)[C@H](CCCNC(=N)N)NC1=O [DMIA1, K10(C16), [E16/K20]-Gluc Amide]	100%	392%	–	–	–	–	–	–
CCCCCCCCCCCCCC(=O)NCCCC[C@H](NC(=O)[C@H](CO)NC(=O)[C@@H]1CCCN1C(=O)[C@@H]1CCCN1C(=O)[C@@H]1CCCN1C(=O)[C@H](C)NC(=O)CNC(=O)[C@H](CO)NC(=O)[C@H](CO)NC(=O)[C@@H]1CCCN1C(=O)CNC(=O)CNC(=O)[C@H](CC(N)=O)NC(=O)[C@H](CCSC)NC(=O)[C@H](CC(C)C)NC(=O)[C@H](Cc1c[nH]c2ccccc12)NC(=O)[C@H](CS)NC(=O)[C@@H](NC(=O)[C@H](Cc1ccccc1)NC(=O)[C@H](CCC(=O)O)NC(=O)[C@H](CCCCN)NC(=O)[C@H](C)NC(=O)[C@H](C)NC(=O)[C@H](CCC(N)=O)NC(=O)[C@H](CCC(=O)O)NC(=O)[C@H](CC(=O)O)NC(=O)[C@H](CC(C)C)NC(=O)[C@H](Cc1ccc(O)cc1)NC(=O)[C@H](CCCCN)NC(=O)[C@H](CO)NC(=O)[C@H](Cc1ccc(O)cc1)NC(=O)[C@H](CC(=O)O)NC(=O)[C@H](CO)NC(=O)[C@@H](NC(=O)[C@H](Cc1ccccc1)NC(=O)[C@@H](NC(=O)CNC(=O)[C@H](CCC(N)=O)NC(=O)C(C)(C)NC(=O)[C@@H](N)Cc1c[nH]cn1)[C@@H](C)O)[C@@H](C)O)[C@@H](C)CC)C(N)=O [mt-345]	–	–	152.78%	4.99%	exceptionally potent activity	0.0183 nM	192.90%	% Relative activity at the Receptor for GLP-1 [1, 7]: 153%; % Relative activity at the Receptor for GIP [3, 7]: 5%; % Relative activity at the Receptor for Glucagon [2, 7]: 193%; food intake ([4]; C57Bl/6 mice on diabetogenic diet, s.c. daily for two weeks): lowest food intake; total change (decrease) in body weight ([4]; C57Bl/6 mice on diabetogenic diet, s.c. daily for two weeks, 10 nmol/kg, Day 14): around 20%; blood glucose levels on Day 7 [5]: total decrease in blood glucose levels
CCCCCCCCCCCCCCCCCC(=O)NCCCC[C@H](NC(=O)[C@H](CC(=O)O)NC(=O)[C@H](CO)NC(=O)[C@@H](NC(=O)[C@H](Cc1ccccc1)NC(=O)[C@@H](NC(=O)CNC(=O)[C@H](CCC(N)=O)NC(=O)[C@H](CO)NC(=O)C(C)(C)c1c[nH]cn1)[C@@H](C)O)[C@@H](C)O)C(=O)N[C@@H](CO)C(=O)N[C@@H](CCCCN)C(=O)N[C@@H](Cc1ccc(O)cc1)C(=O)N[C@@H](CC(C)C)C(=O)N[C@@H](CC(=O)O)C(=O)N[C@H]1CCC(=O)NCCCC[C@@H](C(=O)N[C@@H](CC(=O)O)C(=O)N[C@@H](Cc2ccccc2)C(=O)N[C@H](C(=O)N[C@@H](CCC(N)=O)C(=O)N[C@@H](Cc2c[nH]c3ccccc23)C(=O)N[C@@H](CC(C)C)C(=O)N[C@@H](CCSC)C(=O)N[C@@H](CC(N)=O)C(=O)N[C@H](C(N)=O)[C@@H](C)O)C(C)C)NC(=O)[C@H](C)NC(=O)[C@H](CCCNC(=N)N)NC(=O)[C@H](CCCNC(=N)N)NC1=O [DMIA1, K10(C18), [E16/K20]-Gluc Amide]	136%	42.3%	–	–	–	–	–	–
CCCCCCCCCCCCCCCC(=O)NCCCC[C@H](NC(=O)[C@H](CO)NC(=O)[C@@H]1CCCN1C(=O)[C@@H]1CCCN1C(=O)[C@@H]1CCCN1C(=O)[C@H](C)NC(=O)CNC(=O)[C@H](CO)NC(=O)[C@H](CO)NC(=O)[C@@H]1CCCN1C(=O)CNC(=O)CNC(=O)[C@H](CC(N)=O)NC(=O)[C@H](CCSC)NC(=O)[C@H](CC(C)C)NC(=O)[C@H](Cc1c[nH]c2ccccc12)NC(=O)[C@H](C)NC(=O)[C@@H](NC(=O)[C@H](Cc1ccccc1)NC(=O)[C@H](CCC(=O)O)NC(=O)[C@H](CCCCN)NC(=O)[C@H](C)NC(=O)[C@H](C)NC(=O)[C@H](CCC(N)=O)NC(=O)[C@H](CCC(=O)O)NC(=O)[C@H](CC(=O)O)NC(=O)[C@H](CC(C)C)NC(=O)[C@H](Cc1ccc(O)cc1)NC(=O)[C@H](CCCCN)NC(=O)[C@H](CO)NC(=O)[C@H](Cc1ccc(O)cc1)NC(=O)[C@H](CC(=O)O)NC(=O)[C@H](CO)NC(=O)[C@@H](NC(=O)[C@H](Cc1ccccc1)NC(=O)[C@@H](NC(=O)CNC(=O)[C@H](CCC(N)=O)NC(=O)C(C)(C)NC(=O)[C@@H](N)Cc1c[nH]cn1)[C@@H](C)O)[C@@H](C)O)[C@@H](C)CC)C(N)=O [mt-364]	–	–	354.68%	15.66%	exceptionally potent activity	0.0183 nM	349.97%	% Relative activity at the Receptor for GLP-1 [1, 8]: 354.68%; % Relative activity at the Receptor for GLP-1 ([1]; Table 37): 354.68%; % Relative activity at the Receptor for GIP [3, 8]: 15.66%; % Relative activity at the Receptor for GIP ([3]; Table 37): 15.66%; EC50 [6]: 7 pM; % Relative activity at the Receptor for Glucagon [2, 8]: 349.97%; % Relative activity at the Receptor for Glucagon ([2]; Table 37): 349.97%; decrease in body weight (weight loss) [4, 9]: greater than 15%; fat mass [4, 9]: less than the fat mass of mice injected with vehicle only; decrease in body weight on Day 7 ([4]; DIO mice, s.c. daily for 7 days, 10 nmol/kg): ~20%
CCCCCCCCCCCCCC(=O)NCCCC[C@H](NC(=O)[C@H](CC(=O)O)NC(=O)[C@H](CO)NC(=O)[C@@H](NC(=O)[C@H](Cc1ccccc1)NC(=O)[C@@H](NC(=O)CNC(=O)[C@H](CCC(N)=O)NC(=O)[C@H](CO)NC(=O)C(C)(C)c1cnc[nH]1)[C@@H](C)O)[C@@H](C)O)C(=O)N[C@@H](CO)C(=O)N[C@@H](CCCCN)C(=O)N[C@@H](Cc1ccc(O)cc1)C(=O)N[C@@H](CC(C)C)C(=O)N[C@@H](CC(=O)O)C(=O)N[C@H]1CCC(=O)NCCCC[C@@H](C(=O)N[C@@H](CC(=O)O)C(=O)N[C@@H](Cc2ccccc2)C(=O)N[C@H](C(=O)N[C@@H](CCC(N)=O)C(=O)N[C@@H](Cc2c[nH]c3ccccc23)C(=O)N[C@@H](CC(C)C)C(=O)N[C@@H](CCSC)C(=O)N[C@@H](CC(N)=O)C(=O)N[C@H](C(N)=O)[C@@H](C)O)C(C)C)NC(=O)[C@H](C)NC(=O)[C@H](CCCNC(=N)N)NC(=O)[C@H](CCCNC(=N)N)NC1=O [DMIA1, K10(C14), [E16/K20]-Gluc Amide]	30%	203.7%	–	–	–	–	–	–
